Data taken from patent publication US20240239774A1, “SOLUBLE ADENYLYL CYCLASE (SAC) INHIBITORS AND USES THEREOF” (Cornell University, priority 2021, published 2024).

Amino acid sequences for entries named in this document (tags omitted). A change or cut given only in a name is not applied to a line headed by its entry.
UniProt Q96PN6: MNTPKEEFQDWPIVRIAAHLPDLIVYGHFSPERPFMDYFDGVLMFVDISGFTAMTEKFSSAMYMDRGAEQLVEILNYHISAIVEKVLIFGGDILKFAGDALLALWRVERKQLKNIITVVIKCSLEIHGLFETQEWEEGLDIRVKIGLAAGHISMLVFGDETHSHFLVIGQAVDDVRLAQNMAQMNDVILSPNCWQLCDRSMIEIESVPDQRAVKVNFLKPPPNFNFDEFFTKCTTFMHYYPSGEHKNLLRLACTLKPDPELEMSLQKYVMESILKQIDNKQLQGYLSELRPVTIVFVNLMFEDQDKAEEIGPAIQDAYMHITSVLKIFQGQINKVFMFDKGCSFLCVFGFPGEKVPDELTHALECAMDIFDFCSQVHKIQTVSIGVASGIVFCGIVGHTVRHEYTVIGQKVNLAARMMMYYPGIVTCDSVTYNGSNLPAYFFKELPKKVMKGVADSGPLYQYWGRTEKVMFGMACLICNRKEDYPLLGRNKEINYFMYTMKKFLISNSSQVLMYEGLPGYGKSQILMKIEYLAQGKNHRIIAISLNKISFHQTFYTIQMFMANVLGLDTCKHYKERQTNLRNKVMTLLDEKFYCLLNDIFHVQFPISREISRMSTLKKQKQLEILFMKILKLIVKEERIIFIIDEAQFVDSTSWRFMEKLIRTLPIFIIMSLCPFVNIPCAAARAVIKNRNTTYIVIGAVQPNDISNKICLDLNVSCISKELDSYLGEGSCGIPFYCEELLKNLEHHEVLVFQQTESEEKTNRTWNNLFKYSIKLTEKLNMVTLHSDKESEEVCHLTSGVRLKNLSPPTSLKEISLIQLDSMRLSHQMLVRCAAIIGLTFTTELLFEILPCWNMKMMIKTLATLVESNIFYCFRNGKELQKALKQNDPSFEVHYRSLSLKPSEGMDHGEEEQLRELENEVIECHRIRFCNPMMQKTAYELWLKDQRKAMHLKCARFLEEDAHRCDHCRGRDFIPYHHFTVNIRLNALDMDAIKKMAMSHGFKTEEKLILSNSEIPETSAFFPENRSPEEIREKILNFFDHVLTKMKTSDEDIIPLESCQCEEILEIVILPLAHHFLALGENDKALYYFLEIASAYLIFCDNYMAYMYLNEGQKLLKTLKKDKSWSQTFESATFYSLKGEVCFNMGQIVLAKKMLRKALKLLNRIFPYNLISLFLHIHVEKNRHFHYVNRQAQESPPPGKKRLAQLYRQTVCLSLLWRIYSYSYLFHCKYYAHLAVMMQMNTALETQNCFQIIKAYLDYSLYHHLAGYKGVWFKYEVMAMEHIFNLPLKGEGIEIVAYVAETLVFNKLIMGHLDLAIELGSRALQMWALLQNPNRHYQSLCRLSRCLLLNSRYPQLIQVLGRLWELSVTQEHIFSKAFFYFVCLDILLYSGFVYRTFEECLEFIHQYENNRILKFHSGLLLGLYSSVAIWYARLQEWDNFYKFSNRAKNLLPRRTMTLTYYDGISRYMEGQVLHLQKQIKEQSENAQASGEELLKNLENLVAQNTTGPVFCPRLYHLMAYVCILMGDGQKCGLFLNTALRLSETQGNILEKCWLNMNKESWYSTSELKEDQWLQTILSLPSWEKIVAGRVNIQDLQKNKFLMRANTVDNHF

Target: purified recombinant human sAC protein (Homo sapiens, UniProt Q96PN6)
Assay: biochemical
Type: biochemical
Settings: 1 mM ATP, 2 mM CaCl2, 4 mM MgCl2, 40 mM NaHCO3
Description: Assays for sAC activity using purified protein were performed in 100 μl reactions containing 4 mM MgCl2, 2 mM CaCl2, 1 mM ATP, 40 mM NaHCO3, 50 mM Tris pH 7.5, and 3 mM DTT. Each reaction contained ˜1,000,000 counts of α-^32P labeled ATP.
All in vitro adenylyl cyclase activity assays were performed via the “two-column” method measuring the conversion of [α-^32P] ATP into [^32P] cAMP, as previously described [References 81, 82]. Briefly, human sACt protein [Reference 21] was incubated in buffer containing 50 mM Tris-HCl, pH 7.5, 4 mM MgCl2, 2 mM CaCl2, 1 mM ATP, 3 mM DTT, 40 mM NaHCO3 in the presence of the indicated concentrations of different sAC inhibitors or vehicle (DMSO).

Structure (SMILES) | IC50
Nc1nc(Cl)cc(-c2nn(C(F)F)cc2Cc2ccccc2OCCN2CCNC(=O)C2)n1 [Example 76, 4-[2-[2-[[3-(2-amino-6-chloro-pyrimidin-4-yl)-1-(difluoromethyl)pyrazol-4-yl]methyl]phenoxy]ethyl]piperazin-2-one] | 2 nM
CC1(O)CCN(CCOc2ccccc2Cc2cn(C(F)F)nc2-c2cc(Cl)nc(N)n2)CC1 [Example 77] | 2.4 nM
Nc1nc(Cl)cc(-c2nn(C(F)F)cc2Cc2ccccc2OCCN2CCOCC2)n1 [Example 78, 4-chloro-6-[1-(difluoromethyl)-4-[[2-(2-morpholinoethoxy)phenyl]methyl]pyrazol-3-yl]pyrimidin-2-amine] | 3 nM
CN1CCN(CCCOc2ccccc2Cc2cn(C(F)F)nc2-c2cc(Cl)nc(N)n2)CC1 [Example 79] | 5 nM
Nc1nc(Cl)cc(-c2nn(C(F)F)cc2Cc2ccccc2OCCN2CCCC2)n1 [Example 81] | 12 nM
Nc1nc(Cl)cc(-c2n[nH]cc2Cc2ccccc2OCCN2CCOCC2)n1 [Example 83, 4-chloro-6-[4-[[2-(2-morpholinoethoxy)phenyl]methyl]-1H-pyrazol-3-yl]pyrimidin-2-amine] | ~1000 nM
Nc1nc(Cl)cc(-c2nn(C(F)F)cc2Cc2c(F)cccc2OCCN2CCNC(=O)C2)n1 [Example 84] | 4 nM
CN(C)C1CCN(C(=O)COc2ccccc2Cc2cn(C(F)F)nc2-c2cc(Cl)nc(N)n2)CC1 [Example 85] | 27 nM
Nc1nc(Cl)cc(-c2nn(C(F)F)cc2Cc2ccccc2OCCN2CCC(O)(C(F)F)CC2)n1 [Example 86] | 3 nM
CN(C)C1CCN(CCOc2ccccc2Cc2cn(C(F)F)nc2-c2cc(Cl)nc(N)n2)CC1 [Example 87] | 12 nM
Cn1cc(Cc2ccccc2OCCN2CC3CC(C2)O3)c(-c2cc(Cl)nc(N)n2)n1 [Example 88, 4-chloro-6-[1-methyl-4-[[2-[2-(6-oxa-3-azabicyclo[3.1.1]heptan-3-yl)ethoxy]phenyl]methyl]pyrazol-3-yl]pyrimidin-2-amine] | 5 nM
Cn1cc(Cc2ccccc2OCCN2C[C@H]3C[C@@H]2CO3)c(-c2cc(Cl)nc(N)n2)n1 [Example 89] | 6 nM
COC(=O)Nc1nc(Cl)cc(-c2nn(C)c(C)c2Cc2ccccc2)n1 [Example 90, methyl N-[4-(4-benzyl-1,5-dimethyl-pyrazol-3-yl)-6-chloro-pyrimidin-2-yl]carbamate] | ~1000 nM
CN1CCN(CCOc2ccccc2Cc2cn(C(F)F)nc2-c2cc(Cl)nc(N)n2)CC1 [Example 91] | 18 nM
Cn1cc(Cc2ccccc2OCCN2CC3(COC3)C2)c(-c2cc(Cl)nc(N)n2)n1 [Example 92] | 7.1 nM
Cn1cc(Cc2ccccc2OCCN2C[C@@H]3C[C@H]2CO3)c(-c2cc(Cl)nc(N)n2)n1 [Example 93] | 10 nM
Nc1nc(Cl)cc(-c2nn(C(F)F)cc2Cc2nc(C(=O)NCc3ccccc3)cs2)n1 [Example 94, 2-[[3-(2-amino-6-chloro-pyrimidin-4-yl)-1-(difluoromethyl)pyrazol-4-yl]methyl]-N-benzyl-thiazole-4-carboxamide] | 250 nM
COC(=O)C1CCN(CCOc2ccccc2Cc2cn(C)nc2-c2cc(Cl)nc(N)n2)CC1 [Example 96] | 5 nM
Cn1cc(Cc2ccccc2OCCN2CCC(C(=O)O)CC2)c(-c2cc(Cl)nc(N)n2)n1 [Example 97] | 250 nM
CN1CCC(Oc2ccccc2Cc2cn(C(F)F)nc2-c2cc(Cl)nc(N)n2)CC1 [Example 98] | 20 nM
Cn1cc(Cc2ccccc2OCCN2CCOCC2)c(-c2cc(C#N)nc(N)n2)n1 [Example 99, 2-amino-6-[1-methyl-4-[[2-(2-morpholinoethoxy)phenyl]methyl]pyrazol-3-yl]pyrimidine-4-carbonitrile] | 100 nM
CN1CCN(CCOCc2ccccc2Cc2cn(C(F)F)nc2-c2cc(Cl)nc(N)n2)CC1 [Example 100] | 150 nM
Cn1cc(Cc2cccnc2OCCN2CCOCC2)c(-c2cc(Cl)nc(N)n2)n1 [Example 101] | 150 nM
Cn1cc(Cc2ccccc2OCCN2CCOCC2)c(-c2nc(N)nc(Cl)c2F)n1 [Example 102] | 120 nM
COC(=O)c1ccc(C2CC2)c(Cc2cn(C(F)F)nc2-c2cc(Cl)nc(N)n2)c1 [Example 103, methyl 3-[[3-(2-amino-6-chloro-pyrimidin-4-yl)-1-(difluoromethyl)pyrazol-4-yl]methyl]-4-cyclopropyl-benzoate] | 2 nM
Nc1nc(Cl)cc(-c2nn(C(F)F)cc2Cc2cc(C(=O)O)ccc2C2CC2)n1 [Example 104, 3-[[3-(2-amino-6-chloro-pyrimidin-4-yl)-1-(difluoromethyl)pyrazol-4-yl]methyl]-4-cyclopropyl-benzoic acid] | 10 nM
Nc1nc(Cl)cc(-c2nn(C(F)F)cc2Cc2cc(C(=O)NCc3ccccc3)ccc2C2CC2)n1 [Example 105, 3-[[3-(2-amino-6-chloro-pyrimidin-4-yl)-1-(difluoromethyl)pyrazol-4-yl]methyl]-N-benzyl-4-cyclopropyl-benzamide] | 2 nM
Cn1cc(Cc2ccccc2SCCN2CCOCC2)c(-c2cc(Cl)nc(N)n2)n1 [Example 106] | 60 nM
Cc1c(Cn2cccn2)c(-c2cc(Cl)nc(N)n2)nn1C(F)F [Example 147] | 586 nM

Other lines, results leading:

IC50 | Structure (SMILES)
5 nM | Nc1nc(Cl)cc(-c2nn(C(F)F)cc2Cc2ccccc2OCCN2CCOCC2=O)n1 [Example 108]
10 nM | CN1CCN(CC(C)(O)COc2ccccc2Cc2cn(C(F)F)nc2-c2cc(Cl)nc(N)n2)CC1 (stereo not drawn) [Example 109]
410 nM | CC(=O)N(Cc1cn(C)nc1-c1cc(Cl)nc(N)n1)C1CCC1 [Example 110]
3340 nM | Cn1cc(S(=O)(=O)c2ccccc2)c(-c2cc(Cl)nc(N)n2)n1 [Example 111]
74 nM | CN(C)CCCOC(=O)c1ccccc1Cc1cn(C(F)F)nc1-c1cc(Cl)nc(N)n1 [Example 112]
140 nM | Nc1nc(Cl)cc(-c2nn(C(F)F)cc2CN2CCCc3ccccc32)n1 [Example 113]
2500 nM | Cc1nc(-c2cc(Cl)nc(N)n2)n(Cc2ccccc2)n1 [Example 114]
~1000 nM | Cc1cn(Cc2ccccc2)c(-c2cc(Cl)nc(N)n2)n1 [Example 115]
1400 nM | Cc1nc(Cc2ccccc2)n(-c2cc(Cl)nc(N)n2)n1 [Example 116]
337 nM | Cn1cc(Cc2cccc(OCCN3CCOCC3)c2)c(-c2cc(Cl)nc(N)n2)n1 [Example 117]
160 nM | Nc1nc(Cl)cc(-n2nc(C(F)F)nc2Cc2ccccc2OCC(=O)N2CCOCC2)n1 [Example 118, 2-[2-[[2-(2-amino-6-chloro-pyrimidin-4-yl)-5-(difluoromethyl)-1,2,4-triazol-3-yl]methyl]phenoxy]-1-morpholino-ethanone]
12 nM | Cn1cc(Cc2ccccc2OCCN2CCNC(=O)C2)c(-c2cc(Cl)nc(N)n2)n1 [Example 119]
~1000 nM | Cc1cc(-c2nn(C)cc2Cc2ccccc2OCCN2CCOCC2)nc(N)n1 [Example 121, 4-methyl-6-[1-methyl-4-[[2-(2-morpholinoethoxy)phenyl]methyl]pyrazol-3-yl]pyrimidin-2-amine]
5 nM | Nc1nc(Cl)cc(-c2nn(C(F)F)cc2Cc2ccccc2OCCN2CC3(COC3)C2)n1 [Example 122]
2 nM | Nc1nc(Cl)cc(-c2nn(C(F)F)cc2Cc2ccccc2OCCN2C[C@H]3C[C@@H]2CO3)n1 [Example 124]
3 nM | CN1CCC(O)(CCOc2ccccc2Cc2cn(C(F)F)nc2-c2cc(Cl)nc(N)n2)CC1 [Example 125]

IC50 | Structure (SMILES)
4 nM | Cn1cc(Cc2c(Cl)cccc2OCCN2CCNC(=O)C2)c(-c2cc(Cl)nc(N)n2)n1 [Example 126]
10 nM | COC(=O)COc1ccccc1Cc1cn(C)nc1-c1cc(Cl)nc(N)n1 [Example 127, methyl 2-[2-[[3-(2-amino-6-chloro-pyrimidin-4-yl)-1-methyl-pyrazol-4-yl]methyl]phenoxy]acetate]
15 nM | COCCOCCOCCOc1ccccc1Cc1cn(C)nc1-c1cc(Cl)nc(N)n1 [Example 128]
300 nM | CN(C)CCOCc1c(Cc2ccccc2)c(-c2cc(Cl)nc(N)n2)nn1C [Example 129]
15 nM | Cn1cc(Cc2ccccc2OCC(=O)N2CCC(CO)CC2)c(-c2cc(Cl)nc(N)n2)n1 [Example 134]
40 nM | Cn1cc(Cc2ccccc2OCC(=O)OCCN2CCOCC2)c(-c2cc(Cl)nc(N)n2)n1 [Example 142]
40 nM | Nc1nc(Cl)cc(-c2nn(C(F)F)cc2Cc2cc(C(=O)NCCN3CCOCC3)ccc2C2CC2)n1 [Example 143]
520 nM | COc1ccccc1Cc1c(-c2cc(Cl)nc(N)n2)nn(C)c1C [Example 146]
378 nM | Cn1cc(Cn2cccn2)c(-c2cc(Cl)nc(N)n2)n1 [Example 148, 4-chloro-6-[1-methyl-4-(pyrazol-1-ylmethyl)pyrazol-3-yl]pyrimidin-2-amine]
250 nM | Cc1cccc(C)c1Cc1cn(C(F)F)nc1-c1cc(Cl)nc(N)n1 [Example 149]
550 nM | Nc1nc(Cl)cc(-c2nn(C(F)F)cc2Cc2ccccc2OC2CC2)n1 [Example 150]
30 nM | Cn1cc(Cc2ccccc2OCCN2C[C@H](O)[C@@H](O)C2)c(-c2cc(Cl)nc(N)n2)n1 [Example 151]
32 nM | Cn1cc(Cc2ccccc2OCCN2C[C@@H](O)[C@@H](O)C2)c(-c2cc(Cl)nc(N)n2)n1 [Example 152]
300 nM | Nc1nc(Cl)cc(-c2nn(C(F)F)cc2Cc2cc(C(=O)NCc3ccccc3)ccc2OC2CCC2)n1 [Example 153]
50 nM | Cn1cc(Cc2ccccc2OCC(O)CO)c(-c2cc(Cl)nc(N)n2)n1 (stereo not drawn) [Example 154]
